Key:
recombinant human CK2 = recombinant human CK2 (Homo sapiens (Human), UniProt P68400); assay: CK2 assay (cell-free, 33P-ATP filter plate); format: biochemical; conditions: 500 nM compound
recombinant human PIM1 = recombinant human PIM1 (Homo sapiens (Human), UniProt P11309); assay: PIM-1 kinase activity in cell-free in vitro assay; format: biochemical; conditions: for PIM-1: % inh 500 nM: 500 nM compound; for IC50: read-out: PIM1 IC50
K-562 = assay: Cell proliferation modulatory activity, K-562; format: cell-based; conditions: read-out: K-562 (uM) cell proliferation modulatory activity; K-562 cells
MV-4-11 = assay: Cell proliferation modulatory activity, MV-4-11; format: cell-based; conditions: read-out: MV-4-11 (uM) cell proliferation modulatory activity; MV-4-11 cells

Chains of the proteins cited; added tags and fusions are not shown.
UniProt P68400, whole entry: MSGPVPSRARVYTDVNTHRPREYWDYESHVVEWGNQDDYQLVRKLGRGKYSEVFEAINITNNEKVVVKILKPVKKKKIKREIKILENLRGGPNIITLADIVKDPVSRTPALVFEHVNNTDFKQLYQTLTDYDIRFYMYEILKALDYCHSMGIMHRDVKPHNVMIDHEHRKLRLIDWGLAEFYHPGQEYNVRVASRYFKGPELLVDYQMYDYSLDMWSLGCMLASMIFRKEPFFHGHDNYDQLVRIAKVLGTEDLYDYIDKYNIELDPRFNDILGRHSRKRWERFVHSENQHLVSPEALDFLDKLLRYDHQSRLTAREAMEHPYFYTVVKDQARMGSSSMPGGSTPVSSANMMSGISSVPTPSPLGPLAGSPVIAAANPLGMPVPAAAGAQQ
UniProt P11309, whole entry: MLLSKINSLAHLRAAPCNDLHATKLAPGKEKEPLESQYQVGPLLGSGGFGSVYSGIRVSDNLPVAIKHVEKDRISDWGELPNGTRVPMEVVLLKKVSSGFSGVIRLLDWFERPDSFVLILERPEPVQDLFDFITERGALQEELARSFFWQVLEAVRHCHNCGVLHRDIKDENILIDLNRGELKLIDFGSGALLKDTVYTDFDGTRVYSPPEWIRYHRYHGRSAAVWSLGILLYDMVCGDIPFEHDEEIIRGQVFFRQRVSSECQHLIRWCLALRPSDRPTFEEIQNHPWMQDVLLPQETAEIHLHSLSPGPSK
UniProt P67870, whole entry partner: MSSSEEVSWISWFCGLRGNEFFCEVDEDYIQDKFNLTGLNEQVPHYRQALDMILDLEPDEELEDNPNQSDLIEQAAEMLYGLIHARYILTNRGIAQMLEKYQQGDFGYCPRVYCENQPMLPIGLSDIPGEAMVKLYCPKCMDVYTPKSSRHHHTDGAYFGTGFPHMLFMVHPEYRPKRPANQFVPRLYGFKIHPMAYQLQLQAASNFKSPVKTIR

Row | SMILES | CK2: % inh 500 nM (recombinant human CK2) [%] | PIM-1: % inh 500 nM (recombinant human PIM1) [%] | IC50 (recombinant human PIM1) [nM] | IC50 (K-562) [µM] | IC50 (MV-4-11) [µM]
1 | Fc1cccc(Nc2nc3cc(-c4nnn[nH]4)ccc3c3ccsc23)c1 | 57.627 | 50.289 | 834 | > 10 | 2.19
2 | Fc1cc(F)cc(Nc2nc3cc(-c4nnn[nH]4)ccc3c3ccsc23)c1 | 57.35 | 50.279 | 1010 | > 10 | 3.66

From patent US8168651B2, “Protein kinase modulators” (Cylene Pharmaceuticals, Inc., priority 2008, dated 2012)
